Measured affinities in a library of Ab-14 light chain variants

The target is the same throughout: PDVDLGDISGINAS, from the HR2 region of SARS-CoV-2 spike.

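The starting antibody came from a phage panning campaign against this peptide. These sequences belong to a second round, designed from the earlier measurements on random variants of the parent. Their group label is 14L_GP_HC (GP: Gaussian process model; HC: hill climbing; a sequence that several methods proposed may carry one label only). The scFvs were displayed on barcoded MATa yeast, the peptide on MATalpha yeast. Binding brings cells together so that they mate, and sequencing counts the barcode pairs among the diploids. Each replicate has its own calibration line, from reference interactions of the BCL2 family. Each pool was mated in six replicate cultures.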

Parent: Ab-14, a human scFv built as VH, a (GGGGS)3 linker, VL. Only the CDRs of the light chain vary.
VH: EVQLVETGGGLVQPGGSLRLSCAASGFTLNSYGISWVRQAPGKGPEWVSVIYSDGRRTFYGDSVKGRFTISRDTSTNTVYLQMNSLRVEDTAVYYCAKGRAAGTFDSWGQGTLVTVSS
VL: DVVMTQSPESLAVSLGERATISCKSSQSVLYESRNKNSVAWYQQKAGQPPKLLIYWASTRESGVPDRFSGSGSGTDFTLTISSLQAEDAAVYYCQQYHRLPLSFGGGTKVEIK

The parent's light chain CDRs are KSSQSVLYESRNKNSVA, WASTRES, QQYHRLPLS; each variant's own CDRs replace them letter for letter.
Values are log10 of the apparent Kd in nM; lower means stronger binding.
"nd" marks a missing value. The strain was present, yet no cells mated with the target were sequenced in that replicate, which points to weak or no binding.
Background: pairings of all light chain designs with three empty control strains gave a value in 4% of cases (median 2.64, 5th percentile 1.59). Values in that range, when seen in few replicates, are hard to tell from nonspecific mating. The control count says in how many pairings with the empty strains this scFv gave a signal, with their mean in brackets.

| CDR-L1 | CDR-L2 | CDR-L3 | log10 Kd (nM) by replicate | empty controls |
|---|---|---|---|---|
| KSSISYLYESNNKNSVA | AASTRES | QQYHRLPLS | 0.21 0.12 -0.25 0.11 -0.27 0.08 | 0 of 18 |
| KSSQSVLYESRNVNSVA | GASTRES | QQYHRLPLS | 0.62 0.34 0.41 0.11 0.42 0.67 | 2 of 18 (2.37) |
| KLVGSTLYESRQKNSVA | WASTRES | QQYHRLPLS | 1.94 1.32 nd 1.56 1.30 1.35 | 0 of 18 |
| KLQQSTLYESRNKNSVA | LASTRES | QQYHRLPLS | nd 2.00 2.99 2.04 1.76 3.29 | 0 of 18 |
| KSSQSWLYESRNKNSVA | GASHREV | QQYHRLPLS | -0.31 0.06 -0.17 -0.14 0.24 0.19 | 3 of 18 (2.00) |
| HLSDSVLYESRNKNSVA | NASTRES | QQYHRLPLF | -0.16 -0.35 -0.34 -0.38 -0.31 -0.14 | 3 of 18 (3.30) |
| KFGQGVLYESRNKNSVA | GASQRWS | QQYHRLPLS | 0.27 -0.06 0.37 0.07 0.19 -0.13 | 0 of 18 |
| KSSPSVLYESVNKNSVA | NASTRMS | QQYHRLPLS | 0.31 0.25 0.15 0.21 0.14 0.22 | 1 of 18 (3.31) |
| KSLQSVLYESRNKNSVA | GASTRED | QQYGRLPLS | 0.30 0.42 0.39 0.39 0.58 0.19 | 0 of 18 |
| KLDQSGLYESRNKNSVA | GASTRES | QQYHRLPLS | -0.21 -0.32 -0.38 -0.48 -0.42 -0.11 | 0 of 18 |
| KLSMSTLYESRNKNSVA | NASTRES | QQYHRLPLS | -0.11 -0.13 -0.29 -0.36 -0.27 -0.09 | 1 of 18 (3.16) |
| KSSQSVLYESRNFWSVA | GASTRES | QQYHRLPLS | 1.66 nd 2.61 2.25 1.76 1.57 | 2 of 18 (2.30) |
| KVSQSVLYESGMKNSVA | NASTRES | QQYHRLPLS | 0.36 -0.08 1.65 1.02 2.11 1.92 | 0 of 18 |
| HLSMSVLYESRNKNSVA | NASTRES | QQYHRLPLS | -0.35 -0.39 -0.58 -0.76 -0.26 -0.34 | 0 of 18 |
| KSSQSWLYESRNKNSVA | GASTREA | QQYHRLPLS | -0.44 -0.60 -0.58 -0.73 -0.55 -0.53 | 1 of 18 (4.33) |
| KFSQSVTYESRTKNSVA | NASTRES | QQYHRLPLS | -0.04 -0.12 -0.12 -0.19 -0.13 0.17 | 2 of 18 (3.27) |
| KALQSQEYESRNKNSVA | HASTRED | QQYHCLPLS | 0.76 0.57 0.84 0.33 0.79 0.60 | 1 of 18 (2.13) |
| KVSQSWDMESRNKNSVA | EASTRES | QQYHRLPLS | -0.03 -0.17 -0.20 -0.43 -0.18 0.02 | 1 of 18 (1.90) |
| KYSQSVLYESRNKNAVA | GASTRES | QQYHRLPLS | -0.01 -0.03 -0.17 -0.24 -0.15 0.03 | 2 of 18 (4.22) |
| KSGWGVLYESRNKNHVA | GASTRES | QQYHRLPLS | 0.48 0.42 0.21 -0.14 0.24 0.25 | 1 of 18 (2.23) |
| KLSWVVLYESRNKNSVA | NASTRES | QQYHRLPLS | 0.64 0.51 0.47 0.64 0.53 0.83 | 0 of 18 |
| KSGCGVEYESRNKNSVA | GASTRES | QQYHRLPLS | 0.73 0.68 0.54 0.63 0.46 0.68 | 3 of 18 (2.27) |
| HSSPSVAYESRNKNSVA | NASTREE | QQYHRLPLS | 0.40 0.27 0.18 -0.12 -0.01 0.11 | 1 of 18 (2.71) |
| KFSQSVAYESRTKNSVA | EASTRES | QQYHRLPLS | 0.65 0.40 0.18 0.26 0.47 0.41 | 2 of 18 (3.19) |
| YLSISYLYESPNKNSVA | EASTRES | QQYHRLPLS | 0.37 0.51 0.10 0.15 0.01 0.32 | 0 of 18 |
| KSSISELYESRNENSVA | EASTREQ | QQYHRLPLS | 0.15 0.08 0.12 -0.12 0.09 0.27 | 0 of 18 |
| KQSQSVLYESRDKNSVA | MASTRES | QQYHRLPLS | 1.95 2.38 3.69 1.27 1.38 1.35 | 0 of 18 |
| KGSFSYLLESRNKNSVA | EASTRES | QQYHRLPLS | 0.14 0.05 -0.08 -0.44 -0.16 -0.01 | 2 of 18 (2.24) |
| KLKQSTLYESRNQNSVA | WASTRES | QQYHRLPLS | 1.75 0.97 0.56 1.30 0.62 0.83 | 0 of 18 |
| KLQQSTLYESRNPNSVA | NASTRES | QQYHRLPLS | -0.21 -0.51 -0.48 -0.61 -0.66 -0.36 | 1 of 18 (2.42) |
| KQSQSLLYESRNKNSVA | MASTRES | QQYHRLPLS | 1.22 1.36 1.65 1.19 1.21 2.82 | 1 of 18 (2.22) |
| KSSIGYLEESRNKNSVA | EASTRES | QQYHRLPLS | 0.24 0.17 0.13 -0.01 0.06 0.14 | 1 of 18 (4.64) |
| KASQSWLYESRNKNSVA | GASFRES | QQYHRLPLS | -0.13 -0.38 -0.33 -0.27 -0.13 -0.31 | 1 of 18 (2.85) |

2 of these entries, quoted again:

CDR-L1,CDR-L2,CDR-L3,log10 Kd (nM) by replicate,empty controls
KLVGSTLYESRQKNSVA,WASTRES,QQYHRLPLS,1.94 1.32 nd 1.56 1.30 1.35,0 of 18
KSLQSVLYESRNKNSVA,GASTRED,QQYGRLPLS,0.30 0.42 0.39 0.39 0.58 0.19,0 of 18

The parent sequence was in this pool as ten entries: three were never detected, three once, and four in most replicates, with averages from 0.34 to 2.37.
A sequence measured in both rounds can read differently, since the two assays cover different ranges.
The authors' rule: three or more of the six replicates give a measured affinity, fewer mean a poor binder.

The measurements come from Li et al. 2023 (doi:10.1038/s41467-023-39022-2) through the FLAb antibody collection.